Experimental data: patent publication US9114107B2, “Compositions for inhibiting virus entry and promoting virolysis, and methods thereof” (priority 2010, dated 2015)

Columns and labels:
[1] = system: pseudovirus with VSV-G envelope; assay type: biochemical, vesicular stomatitis virus
HOS.T4.R5 cells = assay: WST-1 cytotoxicity assay; conditions: 48 hours
VSV-G pseudotype virus = assay type: cell-based, vesicular stomatitis virus

## CCC(C)[C@H](NC(=O)[C@@H](N)CCCNC(=N)N)C(=O)N[C@@H](CC(N)=O)C(=O)N[C@@H](CC(N)=O)C(=O)N[C@H](C(=O)N1CC(n2cc([C]34[CH]5[CH]6[CH]7[CH]3[Fe]6754389%10[CH]4[CH]3[CH]8[CH]9[CH]4%10)nn2)C[C@H]1C(=O)N[C@@H](Cc1c[nH]c2ccccc12)C(=O)N[C@@H](CO)C(=O)N[C@@H](CCC(=O)O)C(=O)N[C@@H](C)C(=O)N[C@@H](CCSC)C(=O)N[C@@H](CCSC)C(=O)NCCC(=O)N[C@@H](CCC(N)=O)C(=O)NCCC(=O)N[C@@H](CS)C(N)=O)C(C)CC (stereo partly drawn) [KR13, RINNIXWSEAMMβAQβAC-NH2]
[1]
  p24 release from VSV-G pseudotyped virus: did not show any p24 leakage; also recorded: no effect
HOS.T4.R5 cells
  cytotoxicity, WST-1: No significant cytotoxicity; also recorded: no statistically significant differences measured
VSV-G pseudotype virus
  inhibition of cell infection by control VSV-G pseudotype virus: lack of inhibition; also recorded: no statistically significant difference in the percentage infected

“Also recorded” adds a separate entry of the source.
